Experiments:
cephalosporin esterase [1] = target: T1, cephalosporin esterase (Rhodotorula toruloides, UniProt O42728); assay: Effect of various enzyme modulators; settings: 10 mM reagent, 15 minutes at 25° C., diluted 100 fold, assayed with p-nitrophenyl acetate
cephalosporin esterase [2] = target: T1, cephalosporin esterase; assay: Esterase activity on cephalosporin substrates, monitored by HPLC
[3] = in fermentation broth, cited from earlier work
cephalosporin esterase [4] = target: T1, cephalosporin esterase; assay: Esterase activity on p-nitrophenyl ester substrates, absorbance at 405 nm; settings: 10.0 mM p-nitrophenyl esters, 100 mM potassium phosphate pH 6.5, 2% acetonitrile, 30° C.

| Compound | Effect on enzyme activity (cephalosporin esterase [1]) | further results |
| --- | --- | --- |
| O=S(=O)(F)Cc1ccccc1 | inhibited the enzyme |  |
| CCN1C(=O)C=CC1=O | little or no effect |  |
| O[C@H](CS)[C@H](O)CS | slight activation |  |
| CC(=O)OCC1=C(C(=O)O)N2C(=O)[C@@H](NC(=O)CCC[C@@H](N)C(=O)O)[C@H]2SC1 |  | Time to complete hydrolysis (cephalosporin esterase [2]; 1.0% solution of cephalosporin C, 30° C., no side products by HPLC): ≤ 30 min; Vmax (cephalosporin esterase [2]; hydrolysis of cephalosporin C, pH 6.5, 30° C.): 77.0 µmol/min/mg; Km (cephalosporin esterase [2]; read-out: Km for hydrolysis of cephalosporin C, from double reciprocal plots, 100 mM potassium phosphate pH 6.5, 30° C.): 51.8 mM; Loss by non-enzymatic breakdown to compound X [3]: approximately 40% |
| β-mercaptoethanol | slight activation |  |
| NC(=O)CI | little or no effect |  |
| EDTA | slight inhibition |  |
| CC(=O)Oc1ccc([N+](=O)[O-])cc1 |  | Relative Activity (%) (cephalosporin esterase [4]): 100% |
| O=c1oc(Cl)c(Cl)c2ccccc12 | inhibited the enzyme |  |
| desacetylcephalosporin C |  | Inhibition of the reaction by reaction products (cephalosporin esterase [2]; hydrolysis of cephalosporin C): did not inhibit the reaction to any appreciable extent; Resistance to non-enzymatic breakdown ([3]; compared with cephalosporin C): far more resistant |
| CCOC(=O)OC(=O)OCC | essentially inactivated the enzyme |  |
| acetate |  | Inhibition of the reaction by reaction products (cephalosporin esterase [2]; hydrolysis of cephalosporin C): did not inhibit the reaction to any appreciable extent |
